US6995283B2, “Benzophenones as inhibitors of reverse transcriptase” (priority 2001, dated 2006)

Test: Solubility
Format: physicochemical
Conditions: water; Crystal Form 1
Experimental: A stir bar was put in the vial. The vials were closed with caps and placed on stir plate. […] After equilibration, the samples were centrifuged. An accurate aliquot of clear solution was transferred to a HPLC vial by micropipette. The solubility was determined by HPLC with UV detector and against standard.

2-[4-chloro-2-(3-chloro-5-cyanobenzoyl)phenoxy]-N-{2-methyl-4-[(propionylamino)sulfonyl]phenyl}acetamide, Choline Salt, Form 1
Solubility: 66 mg/mL
